Yeast mating assay 1: variants of the scFv Ab-14

From the AlphaSeq antibody data of Engelhart et al. 2022 (doi:10.1038/s41597-022-01779-4), copy in the FLAb collection.

All variants were tested on one target, the spike HR2 peptide PDVDLGDISGINAS (SARS-CoV-2).

Ab-14 is the parent antibody, in scFv form: VH, then three GGGGS repeats, then VL. The heavy chain is unchanged in all variants.
VH: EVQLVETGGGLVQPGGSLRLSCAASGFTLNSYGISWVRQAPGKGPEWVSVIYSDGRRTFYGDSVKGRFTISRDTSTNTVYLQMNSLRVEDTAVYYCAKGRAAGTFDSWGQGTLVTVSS
VL: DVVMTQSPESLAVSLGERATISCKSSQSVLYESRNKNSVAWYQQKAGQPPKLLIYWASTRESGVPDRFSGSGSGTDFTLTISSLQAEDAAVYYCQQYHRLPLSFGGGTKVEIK

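Phage display of a naive human antibody library on the peptide gave the parent. The library (AAYL50) carries one to three amino acid substitutions per variant, with no insertions or deletions. AlphaSeq pools MATa yeast showing the antibodies with MATalpha yeast showing the peptide. Pairs that bind mate more often; barcode pairs of the diploids are counted by sequencing. Each replicate has its own calibration line, from reference interactions of the BCL2 family. There are three technical replicates.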

Positions count from residue 1 of the parent VL; S26N puts N in place of S. All variants listed here change S26 of the VL, counted from its first residue. Values are log10 of the apparent Kd in nM; lower means stronger binding. A mean of the replicates is given; it leaves out those without a signal. "no signal" means that the variant was in the library but no mating with the target was seen in any replicate; the authors take this as a sign of poor binding, and no number exists. The list is sorted by this average, lowest first, undetected variants last. Three control strains display no target. For library AAYL50, 18% of the pairings with them gave a signal, with a median of 4.19 and one signal in twenty below 2.99, so weak values seen in few replicates may be background. Also given: how often the same scFv was detected with the empty control strains. Parent in this assay: reference entry 0.65, copy in this library 1.68.

For S26N+V29S+W56G, the assay gave -0.24 (3 of 3 replicates; controls 6 of 9).
For S26M+V29S+R34A, the assay gave 0.40 (3 of 3 replicates; controls 1 of 9).
For S26F+S28I+W56Q, the assay gave 0.94 (3 of 3 replicates; controls 0 of 9).
For S26Q+V29E+K36G, the assay gave 1.01 (3 of 3 replicates; controls 1 of 9).
For S26R+V29G+Q95K, the assay gave 1.03 (3 of 3 replicates; controls 0 of 9).
For S26T+R34D+T59W, the assay gave 1.21 (3 of 3 replicates; controls 3 of 9).
For S26V+S62F+H98S, the assay gave 1.34 (3 of 3 replicates; controls 1 of 9).
For S26P+S33A, the assay gave 1.39 (3 of 3 replicates; controls 6 of 9).
For S26T+V29M, the assay gave 1.46 (3 of 3 replicates; controls 6 of 9).
For S26W+R99T, the assay gave 1.56 (3 of 3 replicates; controls 4 of 9).
For S26N+S28T+S62Y, the assay gave 1.71 (3 of 3 replicates; controls 0 of 9).
For S26K+Q95E+L102W, the assay gave 1.72 (2 of 3 replicates; controls 0 of 9).
For S26C+E61S, the assay gave 2.15 (3 of 3 replicates; controls 0 of 9).
For S26G+E61C+Q95G, the assay gave 2.32 (3 of 3 replicates; controls 2 of 9).
For S26N+R99Y, the assay gave 2.58 (3 of 3 replicates; controls 1 of 9).
For S26K+Q27L+Q96H, the assay gave 2.75 (3 of 3 replicates; controls 1 of 9).
For S26F+Q27P+S33W, the assay gave 2.77 (3 of 3 replicates; controls 1 of 9).
For S26L+S28A+E61R, the assay gave 3.12 (3 of 3 replicates; controls 2 of 9).
For S26G+E61I+R99I, the assay gave 3.16 (3 of 3 replicates; controls 0 of 9).
For S26W+S33F, the assay gave 3.23 (2 of 3 replicates; controls 1 of 9).
For S26L+A57C+E61G, the assay gave 3.58 (1 of 3 replicates; controls 1 of 9).
For S26R+R60Y+Y97H, the assay gave 3.74 (1 of 3 replicates; controls 1 of 9).
For S26N+S38V+Y97Q, the assay gave 4.43 (1 of 3 replicates; controls 3 of 9).
For K24P+S26M+N37P, the assay gave 5.89 (1 of 3 replicates; controls 3 of 9).
For S26H+A57M+L102N, the assay gave no signal (0 of 3 replicates; controls 2 of 9).
For S26P+Q27P+P101V, the assay gave no signal (0 of 3 replicates; controls 1 of 9).
For S26V+N35H+L100R, the assay gave no signal (0 of 3 replicates; controls 0 of 9).
For K24E+S26I+Y31R, the assay gave no signal (0 of 3 replicates; controls 0 of 9).
For S26Y+R60E, the assay gave no signal (0 of 3 replicates; controls 0 of 9).
For S26F+N37I+H98C, the assay gave no signal (0 of 3 replicates; controls 2 of 9).